Data as given in patent US12128173B2, “Dry powder drug delivery system and methods” (MannKind Corporation, priority 2012, dated 2024).

Assay: FDKP pharmacokinetics after inhalation, DPI 1 vs MEDTONE (Example 8)
Details: for AVG mean AUC fdkp per emitted fdkp mass: Part 3, DPI 1, 10 mg

SMILES: O=C(O)/C=C/C(=O)NCCCCC1NC(=O)C(CCCCNC(=O)/C=C/C(=O)O)NC1=O (stereo not shown) [FDKP, 3,6-bis(N-fumaryl-4-aminobutyl)-2,5-diketopiperazine]
- increase of FDKP plasma AUC over MEDTONE (FDKP 10 mg, DPI 1): ~2 fold
- Mean Cmax (MEDTONE 10 mg, inhaled): 95 ng/mL
- AVG mean AUC fdkp per emitted fdkp mass (easy inhalation effort): 3925 ng*min/mL*mg fdkp
- AVG mean AUC fdkp per emitted fdkp mass (hard inhalation effort): 3867 ng*min/mL*mg fdkp
